The record followed here is patent publication US20190275027A1 (priority 2018, published 2019).

Amino acid sequences for entries named in this document (tags omitted).
UniProt P15381, whole entry: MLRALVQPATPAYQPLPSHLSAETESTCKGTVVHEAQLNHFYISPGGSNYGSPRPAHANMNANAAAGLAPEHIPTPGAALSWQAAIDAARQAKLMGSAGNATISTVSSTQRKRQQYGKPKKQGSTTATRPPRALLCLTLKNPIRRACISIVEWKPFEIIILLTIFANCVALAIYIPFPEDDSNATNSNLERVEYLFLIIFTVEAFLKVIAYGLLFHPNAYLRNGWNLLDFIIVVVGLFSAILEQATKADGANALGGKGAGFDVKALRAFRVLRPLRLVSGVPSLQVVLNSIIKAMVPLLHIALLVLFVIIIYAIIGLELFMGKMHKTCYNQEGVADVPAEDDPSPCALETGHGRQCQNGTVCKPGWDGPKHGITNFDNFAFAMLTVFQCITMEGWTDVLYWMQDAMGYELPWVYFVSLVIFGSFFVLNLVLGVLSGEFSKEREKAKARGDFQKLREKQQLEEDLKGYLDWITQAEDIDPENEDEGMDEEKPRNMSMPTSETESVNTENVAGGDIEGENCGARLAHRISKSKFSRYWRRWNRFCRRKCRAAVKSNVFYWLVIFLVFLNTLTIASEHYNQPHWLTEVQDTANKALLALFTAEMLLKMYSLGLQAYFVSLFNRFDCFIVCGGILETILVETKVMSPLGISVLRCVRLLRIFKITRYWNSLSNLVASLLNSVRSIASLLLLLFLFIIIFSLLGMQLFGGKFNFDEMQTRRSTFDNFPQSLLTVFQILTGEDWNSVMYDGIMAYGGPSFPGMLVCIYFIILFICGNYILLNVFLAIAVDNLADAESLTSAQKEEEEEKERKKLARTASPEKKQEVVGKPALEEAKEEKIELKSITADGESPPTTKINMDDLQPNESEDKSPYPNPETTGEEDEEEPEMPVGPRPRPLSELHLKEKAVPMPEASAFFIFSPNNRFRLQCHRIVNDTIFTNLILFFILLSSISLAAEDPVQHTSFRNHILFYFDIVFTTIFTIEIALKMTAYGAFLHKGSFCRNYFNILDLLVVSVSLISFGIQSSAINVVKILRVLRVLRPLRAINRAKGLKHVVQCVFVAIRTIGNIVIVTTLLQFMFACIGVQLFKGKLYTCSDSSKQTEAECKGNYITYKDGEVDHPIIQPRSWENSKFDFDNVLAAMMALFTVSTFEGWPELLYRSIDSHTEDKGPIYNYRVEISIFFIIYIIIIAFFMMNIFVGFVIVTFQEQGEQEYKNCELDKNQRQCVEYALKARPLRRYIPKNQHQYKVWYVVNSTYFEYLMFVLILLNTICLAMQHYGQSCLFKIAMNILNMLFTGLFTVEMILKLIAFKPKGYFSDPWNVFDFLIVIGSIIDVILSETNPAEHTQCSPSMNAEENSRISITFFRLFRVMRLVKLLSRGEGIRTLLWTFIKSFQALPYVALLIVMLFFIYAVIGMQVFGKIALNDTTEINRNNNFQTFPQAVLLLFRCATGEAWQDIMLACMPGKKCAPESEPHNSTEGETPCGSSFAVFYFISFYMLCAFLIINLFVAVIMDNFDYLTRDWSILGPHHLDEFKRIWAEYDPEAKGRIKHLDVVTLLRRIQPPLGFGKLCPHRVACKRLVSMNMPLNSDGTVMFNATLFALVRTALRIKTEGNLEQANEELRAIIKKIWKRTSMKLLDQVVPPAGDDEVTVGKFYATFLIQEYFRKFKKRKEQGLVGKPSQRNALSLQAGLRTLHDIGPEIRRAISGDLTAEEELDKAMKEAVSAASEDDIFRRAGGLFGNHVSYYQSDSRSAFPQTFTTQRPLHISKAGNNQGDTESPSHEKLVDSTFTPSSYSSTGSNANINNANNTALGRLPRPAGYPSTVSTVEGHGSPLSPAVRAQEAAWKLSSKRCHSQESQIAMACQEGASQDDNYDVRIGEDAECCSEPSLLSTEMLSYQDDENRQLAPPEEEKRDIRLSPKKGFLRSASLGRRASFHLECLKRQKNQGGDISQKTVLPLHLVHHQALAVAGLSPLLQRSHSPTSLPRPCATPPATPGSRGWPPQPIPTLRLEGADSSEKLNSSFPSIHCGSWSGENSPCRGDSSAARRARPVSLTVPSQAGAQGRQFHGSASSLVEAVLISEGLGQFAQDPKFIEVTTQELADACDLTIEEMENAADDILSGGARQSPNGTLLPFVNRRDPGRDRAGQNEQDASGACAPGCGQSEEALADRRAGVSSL

The target of the data set is L-type channel CaV1.2 (UniProt P15381). The conditions noted are these: read-out: L-Activity IC50, HEK293 CaV1.2 cells, 83 mM KCl, 2 replicates.

pIC50: −log10 of the molar value. Like-named read-outs stand apart in the source and are kept apart here.

Take `COc1ccc2c(c1)CCN(C)[C@@H]2Cc1cccc(Oc2cc(C[C@@H]3c4cc(OC)c(OC)cc4CCN3C)ccc2OC)c1`: the pIC50 is 5.98.

As for `COc1ccc2c(c1)CCN(C)[C@@H]2Cc1ccc(Oc2cc(C[C@@H]3c4ccc(OC)cc4CCN3C)ccc2OC)cc1`, the pIC50 was 6.33.

Consider `COc1ccc2c(c1)CCN(C)[C@@H]2Cc1ccc(Oc2cccc(C[C@@H]3c4cc5c(cc4CCN3C)OCO5)c2)cc1`, for which the negative logarithm of the IC50 (pIC50) was 6.46. Moreover, the pIC50 (listed as B3-34^SS) is 6.14.

Regarding `COc1ccc2c(c1)CCN(C)[C@@H]2Cc1ccc(Oc2ccc(C[C@@H]3c4cc(OC)c(OC)cc4CCN3C)cc2OC)cc1`, the pIC50 was 5.51.

For `COc1ccc2c(c1)CCN(C)[C@@H]2Cc1ccc(OC)c(Oc2ccc(C[C@@H]3c4cc(OC)c(OC)cc4CCN3C)cc2)c1`, the pIC50 was 5.64.

For orientation: pIC50 means −log10 of the IC50, conventionally taken in molar units.
